Amino acid sequences for entries named in this document (tags omitted).
UniProt Q12809, whole entry: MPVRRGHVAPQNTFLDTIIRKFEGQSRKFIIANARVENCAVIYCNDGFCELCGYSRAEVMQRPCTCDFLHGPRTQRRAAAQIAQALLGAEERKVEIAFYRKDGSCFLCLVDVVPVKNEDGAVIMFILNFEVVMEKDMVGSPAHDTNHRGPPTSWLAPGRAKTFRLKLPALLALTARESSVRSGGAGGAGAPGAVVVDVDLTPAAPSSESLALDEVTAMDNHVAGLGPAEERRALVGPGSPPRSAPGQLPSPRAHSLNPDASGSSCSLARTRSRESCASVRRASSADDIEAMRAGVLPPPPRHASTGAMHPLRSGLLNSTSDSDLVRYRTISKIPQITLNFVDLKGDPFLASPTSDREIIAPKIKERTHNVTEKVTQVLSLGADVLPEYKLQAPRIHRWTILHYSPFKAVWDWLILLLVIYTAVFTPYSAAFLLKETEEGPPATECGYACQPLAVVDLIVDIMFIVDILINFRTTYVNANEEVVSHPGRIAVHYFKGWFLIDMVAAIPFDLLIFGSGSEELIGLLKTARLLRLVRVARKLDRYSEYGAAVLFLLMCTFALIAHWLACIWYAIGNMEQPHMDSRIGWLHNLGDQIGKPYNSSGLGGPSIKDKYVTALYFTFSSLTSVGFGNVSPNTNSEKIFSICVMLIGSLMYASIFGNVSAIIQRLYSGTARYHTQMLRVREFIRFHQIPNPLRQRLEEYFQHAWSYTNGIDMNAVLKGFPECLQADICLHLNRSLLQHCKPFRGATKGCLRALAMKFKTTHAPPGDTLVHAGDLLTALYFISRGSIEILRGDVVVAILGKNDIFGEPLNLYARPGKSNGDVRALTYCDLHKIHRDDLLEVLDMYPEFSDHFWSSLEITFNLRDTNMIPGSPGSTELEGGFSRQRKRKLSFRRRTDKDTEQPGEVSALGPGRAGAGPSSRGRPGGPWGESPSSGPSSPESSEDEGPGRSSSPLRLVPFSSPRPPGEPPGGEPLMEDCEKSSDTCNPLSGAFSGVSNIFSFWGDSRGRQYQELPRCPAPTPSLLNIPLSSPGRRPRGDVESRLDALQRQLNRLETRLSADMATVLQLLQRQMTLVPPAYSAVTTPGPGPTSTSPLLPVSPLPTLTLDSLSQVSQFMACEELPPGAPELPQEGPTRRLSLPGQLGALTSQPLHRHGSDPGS

According to US20240317736A1, “DEUTERATED DERIVATIVE AS ATX INHIBITOR, AND APPLICATION THEREOF” (Xizang Haisco Pharmaceutical Co., Ltd., priority 2020, published 2024):

How the values were obtained:
[1] = Pharmacokinetic test in rats
Procedure: Test objective: test compounds were given to SD rats via single-dose intravenous and intragastric administration, the concentrations of the test compounds in plasma of rats were measured, and the pharmacokinetic characteristics and bioavailability of test compounds in rats were evaluated.
Test animals: male SD rats, about 220 g, 6-8 weeks old, six rats/compound, purchased from Chengdu Ddossy Experimental Animals Co., Ltd.
Test method: on the day of the test, 6 SD rats were randomly grouped according to their body weights. The rats were fasted with water available for 12-14 h one day before the administration, and were fed 4 h after the administration. The administration was performed according to Table 5.
Before and after the administration, 0.1 mL of blood was taken from the orbits of the rats under isoflurane anaesthesia, and placed in an EDTAK2 centrifuge tube. Centrifugation was performed at 5000 rpm at 4° C. for 10 min, and plasma was collected.
Time points for sample collection in group G1 comprise 0 min, 5 min, 15 min, 30 min, 1 h, 2 h, 4 h, 6 h, 8 h and 24 h.
Time points for sample collection in group G2 comprise 0 min, 15 min, 30 min, 1 h, 2 h, 4 h, 6 h, 8 h and 24 h.
30 μL of each of plasma samples, standard curve samples and quality control samples was taken, and 200 μL of acetonitrile solution containing an internal standard was added, and the resulting mixture was homogeneously mixed by vortex and centrifuged at 4° C. at 12000 rpm for 10 min. 170 μL of the supernatant was taken to a 96-well plate, and LC-MS/MS analysis was performed, wherein the sample size was 2 μL.
The main pharmacokinetic parameters were analyzed by a non-compartmental model using WinNonlin 8.0 software.

[2] = Pharmacokinetic test in mice
Procedure: Test objective: the pharmacokinetic characteristics and bioavailability of test compounds in mice were evaluated.
Test animals: thirty-six C57 male mice, about 25 g, 6-8 weeks old, purchased from Chengdu Ddossy Experimental Animals Co., Ltd., with the production license number of SCXK (CHUAN) 2020-030.
Vehicle for intravenous administration: 5% DMA+5% Solutol+90% Saline; vehicle for intragastric administration: 0.5% MC
(§1) Before and after the administration, 0.06 mL of blood was taken from the orbits under isoflurane anaesthesia and placed in an EDTAK2 centrifuge tube. The blood was centrifuged at 5000 rpm at 4° C. for 10 min, and plasma was collected. Time points for blood collection: 0 min, 5 min, 15 min, 30 min, 1 h, 2 h, 4 h, 6 h, 8 h, 10 h and 24 h. Before analysis and detection, all plasma samples were stored at −80° C.

[3] = Pharmacokinetic test in dogs
Procedure: Test objective: the pharmacokinetic characteristics and bioavailability of test compounds in dogs were evaluated.
Test animals: twelve male beagles, 8-10 kg, 0.5-1.5 years old, purchased from Beijing Marshall Biotechnology Co. Ltd., with the production license number of SCXK (JING) 2016-001.
Vehicle for intravenous administration: 5% DMSO+5% Solutol+90% Saline; • vehicle for intragastric administration: 1% DMSO+1% Solutol+98% (0.5% MC);
as §1, with “the administration, 1.0 mL of” for “the administration, 0.06 mL of”, “from the veins of the forelimbs and placed” for “from the orbits under isoflurane anaesthesia and placed”, “h, 10 h, 12 h and” for “h, 10 h and”

[4] = Pharmacokinetic test in monkeys
Procedure: Test objective: the pharmacokinetic characteristics and bioavailability of test compounds in monkeys were evaluated.
Test animals: twelve male Cynomolgus macaques, 2.4-5.9 kg, 3-5.5 years old, purchased from Suzhou Xishan Zhongke Laboratory Animal Co., Ltd., with the production license number of SCXK (SU) 2018-0001.
Vehicle for intravenous administration: 5% DMSO+5% Solutol+90% Saline; • vehicle for intragastric administration: 1% DMSO+1% Solutol+98% (0.5% CMC-Na)
as §1, with “the administration, 1.0 mL of” for “the administration, 0.06 mL of”, “from the veins of the forelimbs and placed” for “from the orbits under isoflurane anaesthesia and placed”, “h, 10 h, 12 h and” for “h, 10 h and”

[5] = molecular target: hERG potassium channel (Homo sapiens, UniProt Q12809)

AUC ([1]; IV 1 mg/kg): 1491 ± 203 ng·h/mL
C0 or Cmax ([1]; IV 1 mg/kg): 870 ± 25 ng/mL
T1/2 ([1]; IV 1 mg/kg): 2.69 ± 0.48 h
Tmax ([1]; PO 5 mg/kg): 2.83 ± 2.8 h
F % ([1]; PO 5 mg/kg vs IV 1 mg/kg): 29.3 ± 8.0%
AUC ([2]; IV 1 mg/kg): 1594 ng·h/mL
C0 or Cmax ([2]; IV 1 mg/kg): 1383 ng/mL
T1/2 ([2]; IV 1 mg/kg): 1.78 h
AUC ([2]; PO 10 mg/kg): 6768 ng·h/mL
C0 or Cmax ([2]; PO 10 mg/kg): 928 ng/mL
T1/2 ([2]; PO 10 mg/kg): 2.14 h
Tmax ([2]; PO 10 mg/kg): 2.00 h
F % ([2]; PO 10 mg/kg vs IV 1 mg/kg): 42.5%
AUC ([3]; IV 1 mg/kg): 6850 ± 1812 ng·h/mL
C0 or Cmax ([3]; IV 1 mg/kg): 1374 ± 72 ng/mL
T1/2 ([3]; IV 1 mg/kg): 5.68 ± 1.0 h
AUC ([3]; PO 2 mg/kg): 9124 ± 1303 ng·h/mL
C0 or Cmax ([3]; PO 2 mg/kg): 1081 ± 149 ng/mL
T1/2 ([3]; PO 2 mg/kg): 7.25 ± 0.45 h
Tmax ([3]; PO 2 mg/kg): 2.00 ± 0.0 h
F % ([3]; PO 2 mg/kg vs IV 1 mg/kg): 66.6 ± 9.5%
AUC ([4]; IV 1 mg/kg): 1453 ± 374 ng·h/mL
C0 or Cmax ([4]; IV 1 mg/kg): 1002 ± 92 ng/mL
T1/2 ([4]; IV 1 mg/kg): 1.74 ± 0.23 h
AUC ([4]; PO 5 mg/kg): 2624 ± 23 ng·h/mL
C0 or Cmax ([4]; PO 5 mg/kg): 516 ± 60 ng/mL
T1/2 ([4]; PO 5 mg/kg): 3.18 ± 1.04 h
Tmax ([4]; PO 5 mg/kg): 1.33 ± 0.58 h
SMILES: CCc1nn2cc(F)c(N3CCN(CC(=O)N4CC(O)C4)CC3)cc2c1N(C)c1nc(-c2ccc(F)cc2)c(C#N)s1
IC50 [5]: 9.37 µM
